# Measured values as given in PubChem BioAssay AID2825 (Sanford-Burnham Center for Chemical Genomics, 2010).
# Only a part is listed here, and it is no random draw. Active and inactive are the calls of the source.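 The calls were made as follows: active = inhibition of 50% or more; inactive = inhibition below 50%.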
# Assay: NALP3 inflammasome inhibitors in reconstituted yeast, primary screen, luminescence, uHTS (AID 2825);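 also: plate controls were induced DMSO wells for no effect and uninduced yeast grown without galactose for full effect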
# Conditions: Yeast reconstituted NLRP3/ASC/caspase-1, beta-gal luminescence, 24 h; at 10 µM; stronger effect = higher value
row,Structure (SMILES),inhibition
1,CCOc1ncccc1C(=O)NCC1(N2CCOCC2)CCCCC1,inactive: 9.26%
2,CN1CCC(Nc2ccc(F)c(Cl)c2)CC1,inactive: 12.3%
3,CC(C)(C)OC(=O)N1CCC(Nc2ccccc2)CC1,active: 51.6%
4,O=C(O)C1(Nc2ccccc2)CCN(Cc2ccccc2)CC1,inactive: 20.4%
5,CCCOc1ccc(C(=O)NCC2(N(C)C)CCCCC2)cc1,inactive: 8.23%
6,COc1cc(OC)cc(C(=O)NCC2(N3CCOCC3)CCCCC2)c1,inactive: 12.3%
7,COc1cccc(C(=O)N(c2cc(C)cc(C)c2)C2CCN(C(=O)OC(C)(C)C)CC2)c1,inactive: -6.28%
8,CCC(CO)(C(=O)OC1CN2CCC1CC2)c1ccccc1 (configuration not stated),inactive: 12.3%
9,CN1CCC(Nc2ccc(Cl)cc2)CC1,inactive: 19.8%
10,CCCOc1ccc(C)cc1CN(CCCl)CCCl,inactive: 3.01%
11,COc1cc(OC)cc(C(=O)NCC2(N3CCCCC3)CCCCC2)c1,inactive: 2.65%
12,Cc1ccc(C(=O)NCC2(N3CCCCC3)CCCCC2)o1,inactive: -4.39%
13,Fc1ccccc1NC1CCN(Cc2ccccc2)CC1,inactive: -4%
14,CCN1CCC(Nc2cccc(F)c2)CC1,inactive: 14.8%
15,O=C(NCC1(N2CCCCC2)CCCCC1)c1ccco1,inactive: 3.54%
16,CN(C)c1ccc(C(=O)NCC2(N3CCCCC3)CCCCC2)cc1,inactive: 3.42%
17,N#Cc1ccc(C(=O)NCC2(N3CCCCC3)CCCCC2)cc1,inactive: 2.01%
18,CC(C)(C)OC(=O)N1CCC(N(C(=O)c2ccccc2)c2ccc(Cl)cc2)CC1,inactive: 17.2%
19,CN(C)C1(CNC(=O)c2cccc(C#N)c2)CCCCC1,inactive: 8.37%
20,c1ccc(CN2CCC(Nc3ccccc3)CC2)cc1,inactive: 15.6%
21,CCCN1CCC(Nc2cc(OC)cc(OC)c2)CC1,inactive: 14.3%
22,COc1cc(C(=O)NCC2(N3CCOCC3)CCCCC2)cc(OC)c1C,inactive: -2.5%
23,O=C(NCC1(N2CCOCC2)CCCCC1)c1cc(Br)ccc1Cl,inactive: -0.17%

row,Structure (SMILES),inhibition
1,COc1ccc(C(=O)NCC2(N3CCOCC3)CCCCC2)cc1OC,inactive: -0.511%
2,CCOC(=O)N1CCC(Nc2ccc(C)cc2)CC1,inactive: 7.15%
3,N/C(=N\O)c1c(N)no[n+]1[O-],inactive: 15.8%
4,O=C(OC1CN2CCC1CC2)C1c2ccccc2C=Cc2ccccc21 (configuration not stated),inactive: 8.07%
5,CCc1cc(C(=O)NCC2(N3CCCCC3)CCCCC2)sc1C,inactive: 17.9%
6,CC(C)c1ccc(NC2CCN(C(=O)OC(C)(C)C)CC2)cc1,inactive: 25%
7,COc1ccc(CN(CCCl)CCCl)cc1Cl,inactive: 9.96%
8,CN(C)c1cccc(C(=O)NCC2(N3CCCCC3)CCCCC2)c1,inactive: 0.965%
9,COc1cc(OC)c(C(=O)NCC2(N(C)C)CCCCC2)cc1OC,inactive: 15.8%
10,O=C(NCC1(N2CCOCC2)CCCCC1)c1cc(F)c(F)cc1Cl,inactive: -4.85%
11,O=C(NCC1(N2CCCCC2)CCCCC1)c1cncc(Br)c1,inactive: -10.7%
12,CN1CCC(Nc2cccc(F)c2)CC1,inactive: -12%
13,O=C(NCC1(N2CCCCC2)CCCCC1)c1ccc(OC(F)F)cc1,inactive: 15.1%
14,CCN1CCC(Nc2ccc(Cl)cc2)CC1,inactive: 18.1%
15,N#CC1(Nc2ccccc2)CCN(CCc2ccccc2)CC1,inactive: -6.42%
16,CSc1ccc(C(=O)NCC2(N3CCOCC3)CCCCC2)cc1,inactive: 16%
17,O=C(NCC1(N2CCCCC2)CCCCC1)c1cccc([N+](=O)[O-])c1,inactive: 17.1%
18,O=C(NCC1(N2CCCCC2)CCCCC1)c1cccc(C(F)(F)F)c1,inactive: 2.66%
19,COc1cc(C(=O)NCC2(N3CCCCC3)CCCCC2)ccc1OC(F)F,inactive: 21.3%
20,O=C(NCC1(N2CCOCC2)CCCCC1)c1cc(=O)[nH]c2ccccc12,inactive: 14.5%
21,CN1CCN(CCOC(=O)C(O)(c2ccccc2)c2ccccc2)CC1,inactive: 12.9%
22,COc1ccc(NC2CCN(C(=O)OC(C)(C)C)CC2)cc1,inactive: 20%
23,CC(C)c1ccc(C(=O)NCC2(N3CCOCC3)CCCCC2)cc1,inactive: 13%

row,Structure (SMILES),inhibition
1,CCOc1ccc(C)cc1CN(CCCl)CCCl,inactive: -3.56%
2,O=C(NCC1(N2CCCCC2)CCCCC1)c1ccc(F)cc1,inactive: 15.4%
3,CCCCOc1ccc(C(=O)NCC2(N3CCOCC3)CCCCC2)cc1,inactive: 12.2%
4,COc1ccc(NC2CCN(CCc3ccccc3)CC2)c(OC)c1,inactive: 6.9%
5,CCOC(=O)N1CCC(Nc2ccc(F)cc2)CC1,inactive: 29.9%
6,CCOC(=O)N1CCC(Nc2cccc(C)c2)CC1,inactive: 27.6%
7,Cc1ccc(OCC(C)C)c(CN(CCCl)CCCl)c1,inactive: -11.6%
8,COc1ccc(C(=O)NCC2(N3CCCCC3)CCCCC2)cc1,inactive: 7.69%
9,COc1ccc(C(=O)NCC2(N3CCCCC3)CCCCC2)c(OC)c1OC,inactive: 23.5%
10,CC(C)(C)OC(=O)N1CCC(N(C(=O)c2ccccc2)c2ccc(F)cc2)CC1,inactive: 10.1%
11,O=C(NCC1(N2CCCCC2)CCCCC1)c1ccc(=O)[nH]c1,inactive: 12.5%
12,O=C(NCC1(N2CCCCC2)CCCCC1)c1cccs1,inactive: 23.7%
13,CSc1ccccc1C(=O)NCC1(N2CCCCC2)CCCCC1,inactive: 9.26%
14,O=C(NCC1(N2CCCCC2)CCCCC1)c1ccc(Cl)nc1,inactive: 21.3%
15,Cc1cc(C)cc(N(C(=O)c2ccccc2)C2CCN(C(=O)OC(C)(C)C)CC2)c1,inactive: 11.9%
16,O=C(NCC1(N2CCOCC2)CCCCC1)c1cc2ccccc2o1,inactive: -2.26%
17,O=C(OC1CN2CCC1CC2)C1c2ccccc2Oc2ccccc21 (configuration not stated),inactive: -4.74%
18,N#CC1(Nc2ccccc2)CCN(Cc2ccccc2)CC1,inactive: 11.2%
19,O=C(NCC1(N2CCCCC2)CCCCC1)c1ccc(Cl)s1,inactive: 11.2%
20,COc1ccc(Cl)cc1C(=O)NCC1(N2CCOCC2)CCCCC1,inactive: 11.2%
21,CCOC(=O)N1CCC(Nc2ccc(OC)cc2)CC1,inactive: 15.5%
